This is a selection; strong and weak results do not stand in their true shares. Inconclusive results are not listed. Activity calls are given as the source filed them. Calls follow the shape of the dose curve; as a rule, active = well fitted activation curve with a large enough effect; inconclusive = small, poorly fitted or top-dose-only effect; inactive = no such curve, though single readings can be large or run the other way.
Experiment: A quantitative high throughput screen for small molecules that induce DNA re-replication in MCF 10a normal breast cells. Also: % of control where 0% means no effect; nearly all actives have a fitted effect of over 50% in size.
Conditions: MCF 10A DNA re-replication, Hoechst nuclear intensity, 48 h; at 46.1 µM (top of the series)
In the case of `CCC(=O)N(c1ccccc1)C1(COC)CCN(CCn2nnn(CC)c2=O)CC1`, the activity, positive = re-replication is reported as inactive: 6.66%.
For `CCC(=O)N(c1ccccc1)C1(COC)CCN(CCc2cccs2)CC1`, the activity, positive = re-replication was inactive: -0.343%.
In the case of `CN(CCCl)CCCl`, the activity, positive = re-replication is reported as inactive: 20.4%.
